Assay results from ChEMBL document CHEMBL1148680 (Bioorg Med Chem Lett, 2006).

Sequences of proteins named here, by UniProt entry; tags and fusion partners are left off. A change or cut given only in a name is not applied to a line headed by its entry.
UniProt Q12809: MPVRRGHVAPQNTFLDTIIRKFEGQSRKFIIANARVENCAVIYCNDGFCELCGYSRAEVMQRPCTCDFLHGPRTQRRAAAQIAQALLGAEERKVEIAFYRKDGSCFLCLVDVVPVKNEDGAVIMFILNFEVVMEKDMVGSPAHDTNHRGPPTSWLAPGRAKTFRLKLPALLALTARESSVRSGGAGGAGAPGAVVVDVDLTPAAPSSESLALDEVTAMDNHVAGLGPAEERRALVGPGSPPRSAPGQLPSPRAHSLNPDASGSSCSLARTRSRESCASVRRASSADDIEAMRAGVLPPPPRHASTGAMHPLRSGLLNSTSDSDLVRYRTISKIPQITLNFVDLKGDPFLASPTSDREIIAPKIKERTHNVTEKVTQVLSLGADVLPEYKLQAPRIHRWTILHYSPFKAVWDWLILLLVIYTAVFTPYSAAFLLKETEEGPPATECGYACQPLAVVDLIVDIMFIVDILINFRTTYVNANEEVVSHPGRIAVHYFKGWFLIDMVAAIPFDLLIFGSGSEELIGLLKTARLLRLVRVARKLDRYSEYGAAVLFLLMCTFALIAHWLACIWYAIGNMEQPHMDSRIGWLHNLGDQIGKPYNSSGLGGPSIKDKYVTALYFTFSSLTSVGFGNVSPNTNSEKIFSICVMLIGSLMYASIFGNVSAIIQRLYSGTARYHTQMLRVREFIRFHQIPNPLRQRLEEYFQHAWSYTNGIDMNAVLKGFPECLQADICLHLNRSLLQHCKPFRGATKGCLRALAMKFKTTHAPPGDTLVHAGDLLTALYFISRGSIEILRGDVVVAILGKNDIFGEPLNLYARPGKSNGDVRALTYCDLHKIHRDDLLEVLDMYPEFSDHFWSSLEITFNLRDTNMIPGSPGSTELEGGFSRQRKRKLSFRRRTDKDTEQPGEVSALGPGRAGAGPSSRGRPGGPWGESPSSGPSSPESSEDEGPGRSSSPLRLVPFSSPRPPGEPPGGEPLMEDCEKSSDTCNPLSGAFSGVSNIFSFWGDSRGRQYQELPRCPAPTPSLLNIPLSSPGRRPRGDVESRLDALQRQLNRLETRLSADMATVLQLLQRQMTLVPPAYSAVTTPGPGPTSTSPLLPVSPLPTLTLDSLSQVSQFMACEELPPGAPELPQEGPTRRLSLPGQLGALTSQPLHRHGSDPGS

Molecular target: Voltage-gated inwardly rectifying potassium channel KCNH2 (Homo sapiens, UniProt Q12809)
Test: Inhibition of [3H]dofetilide binding to HERG expressed in HEK293 cells
Assay type: cell-based

`CN(CCOc1ccc(NS(C)(=O)=O)cc1)CCc1ccc(NS(C)(=O)=O)cc1` [DOFETILIDE] gave an Activity of 0.011 µM.
